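GI50 is the concentration that inhibits growth by half. TGI denotes the concentration required for complete inhibition of growth.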
What was measured:
Assay in all cases: NCI tumour cell line growth inhibition, 384-well format
SF-295 CNS = system: SF-295 CNS
MDA-MB-231 breast = system: MDA-MB-231 breast
OVCAR-4 ovarian = system: OVCAR-4 ovarian
MDA-MB-435 melanoma = system: MDA-MB-435 melanoma
SK-OV-3 ovarian = system: SK-OV-3 ovarian
OVCAR-5 ovarian = system: OVCAR-5 ovarian
HT29 colon = system: HT29 colon
NCI-H23 lung = system: NCI-H23 lung
SK-MEL-2 melanoma = system: SK-MEL-2 melanoma
NCI/ADR-RES ovarian = system: NCI/ADR-RES ovarian
HS 578T breast = system: HS 578T breast
UACC-257 melanoma = system: UACC-257 melanoma
UO-31 renal = system: UO-31 renal
OVCAR-8 ovarian = system: OVCAR-8 ovarian
EKVX NSCLC = system: EKVX NSCLC
IGROV1 ovarian = system: IGROV1 ovarian
HOP-62 NSCLC = system: HOP-62 NSCLC
SN12C renal = system: SN12C renal

CN(CCCl)CCCl
GI50 (SF-295 CNS): 3.16 µM
TGI (SF-295 CNS): 10.6 µM
GI50 (MDA-MB-231 breast): 14.3 µM
TGI (MDA-MB-231 breast): 86.9 µM
GI50 (OVCAR-4 ovarian): 18.2 µM
TGI (OVCAR-4 ovarian): 37.9 µM
GI50 (MDA-MB-435 melanoma): 12.9 µM
TGI (MDA-MB-435 melanoma): 27.4 µM
GI50 (SK-OV-3 ovarian): 13.4 µM
TGI (SK-OV-3 ovarian): 51.7 µM
GI50 (OVCAR-5 ovarian): 5.85 µM
TGI (OVCAR-5 ovarian): 39.6 µM
GI50 (HT29 colon): 1.73 µM
TGI (HT29 colon): 13.9 µM
GI50 (NCI-H23 lung): 2.96 µM
TGI (NCI-H23 lung): 10.5 µM
GI50 (SK-MEL-2 melanoma): 24.1 µM
TGI (SK-MEL-2 melanoma): 40.2 µM
GI50 (NCI/ADR-RES ovarian): 9.94 µM
TGI (NCI/ADR-RES ovarian): 25.4 µM
GI50 (HS 578T breast): 23.8 µM
GI50 (UACC-257 melanoma): 14.1 µM
TGI (UACC-257 melanoma): 30.3 µM
GI50 (UO-31 renal): 5.21 µM
TGI (UO-31 renal): 29.8 µM
GI50 (OVCAR-8 ovarian): 7.1 µM
TGI (OVCAR-8 ovarian): 26.6 µM
GI50 (EKVX NSCLC): 14.5 µM
TGI (EKVX NSCLC): 35.8 µM
GI50 (IGROV1 ovarian): 12.7 µM
GI50 (HOP-62 NSCLC): 3.42 µM
TGI (HOP-62 NSCLC): 10.6 µM
GI50 (SN12C renal): 0.812 µM
TGI (SN12C renal): 10.8 µM

— PubChem BioAssay (NCI)
